The values below are quoted from earlier work in paper PMC11998001, “Towards P2X4 Positron Emission Tomography Tracing” (Journal of Medicinal Chemistry, 2025).

What is called IC50 is the concentration needed to halve the response being measured.

This data set concerns hP2X4R. Particulars: representative P2X4 antagonists, Figure 2.

For `Cc1ccc(S(=O)(=O)N2c3ccccc3Oc3ccccc32)cc1` [PSB-12062], the IC50 was 1.4 µM.
